In this assay the target is 5-hydroxytryptamine receptor 2B (Homo sapiens, UniProt P41595).

Protein sequences, listed by entry. Tags and fused reporters are not part of them.
UniProt P41595, whole entry: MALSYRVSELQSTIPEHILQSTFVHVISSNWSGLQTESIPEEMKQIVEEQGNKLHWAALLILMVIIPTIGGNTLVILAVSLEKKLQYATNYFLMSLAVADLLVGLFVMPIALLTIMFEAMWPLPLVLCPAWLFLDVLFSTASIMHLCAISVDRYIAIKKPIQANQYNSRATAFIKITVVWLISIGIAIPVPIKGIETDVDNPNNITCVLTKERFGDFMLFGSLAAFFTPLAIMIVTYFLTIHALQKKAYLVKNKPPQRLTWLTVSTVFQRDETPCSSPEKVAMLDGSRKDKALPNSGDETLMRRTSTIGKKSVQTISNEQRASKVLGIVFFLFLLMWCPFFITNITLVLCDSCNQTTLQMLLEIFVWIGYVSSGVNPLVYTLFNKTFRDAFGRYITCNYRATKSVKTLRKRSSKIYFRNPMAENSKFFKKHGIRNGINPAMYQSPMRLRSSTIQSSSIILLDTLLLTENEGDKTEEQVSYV

As a reminder, the Ki is the dissociation constant of the complex between target and ligand, obtained from inhibition or displacement. Higher therefore signals lower affinity. In turn, `CCNC(C)Cc1cccc(C(F)(F)F)c1` (stereo unspecified) [NSC_3337] registered a Ki of 0.4 µM.

For the origin of these results see BindingDB's records for doi:10.1124/mol.63.6.1223 (Case Western Reserve University, 2003).
